## Yeast mating assay 1: variants of the scFv Ab-14

Reference: Engelhart et al. 2022, doi:10.1038/s41597-022-01779-4. File: FLAb, binding data.

Target peptide (SARS-CoV-2 spike, HR2 region): PDVDLGDISGINAS

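The parent was found by panning a naive human phage display library on the peptide. AAYL49 was designed without a model: most single CDR substitutions and a random sample of double and triple ones. AlphaSeq pools MATa yeast showing the antibodies with MATalpha yeast showing the peptide. Mating (16 h, 30 °C) was followed by selection of diploids and sequencing of their barcodes. The ratio of observed to expected reads was calibrated, replicate by replicate, on BCL2-family standards whose Kd was known from biolayer interferometry. Mating was done three times.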

Parent scFv Ab-14: VH joined to VL by the linker GGGGSGGGGSGGGGS. Changes lie in the heavy chain CDRs alone.
VH: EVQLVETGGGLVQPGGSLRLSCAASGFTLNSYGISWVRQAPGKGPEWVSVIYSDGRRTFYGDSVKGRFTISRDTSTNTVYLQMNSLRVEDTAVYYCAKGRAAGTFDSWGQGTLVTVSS
VL: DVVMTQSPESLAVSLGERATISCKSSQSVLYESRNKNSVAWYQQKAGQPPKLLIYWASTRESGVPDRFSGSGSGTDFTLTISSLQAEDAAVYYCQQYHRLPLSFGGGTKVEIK

Substitutions are numbered in sequence along the VH above, starting at 1 (not Kabat). This list gathers variants with a substitution at G99 (VH, numbered from residue 1). Each Kd is an estimate from the mating assay, the geometric mean of the replicates in which the pair was seen; lower is stronger. "nd" means that the variant was in the library but no mating with the target was seen in any replicate; the authors take this as a sign of poor binding, and no number exists.

L29Q Y52G G99F: 1.3 µM (1 of 3 replicates; controls 1 of 9).
S53A T58K G99P: 1.7 µM (1 of 3 replicates; controls 2 of 9).
F27V K65E G99F: 910 nM (3 of 3 replicates; controls 4 of 9).
L29N G99T F105Q: 45 µM (1 of 3 replicates; controls 0 of 9).
V50C G55K G99E: 260 µM (2 of 3 replicates; controls 1 of 9).
G33A Y60P G99Y: 200 µM (1 of 3 replicates; controls 1 of 9).
S35C G99V S107Q: 5.1 µM (2 of 3 replicates; controls 3 of 9).
R56I Y60N G99Y: 6.7 µM (3 of 3 replicates; controls 5 of 9).
G99R A102I G103C: 2.9 nM (3 of 3 replicates; controls 0 of 9).
Y32P T58P G99N: 8.2 µM (1 of 3 replicates; controls 4 of 9).
G99T A101Q A102T: nd (0 of 3 replicates; controls 0 of 9).
R56D T58Q G99V: nd (0 of 3 replicates; controls 0 of 9).
V50E F59T G99C: nd (0 of 3 replicates; controls 0 of 9).
I51M Y60D G99H: 76 µM (2 of 3 replicates; controls 3 of 9).
V64R G99Y: nd (0 of 3 replicates; controls 2 of 9).
S53M G61Y G99W: 9.8 µM (2 of 3 replicates; controls 2 of 9).
R57F S63K G99H: 41 µM (1 of 3 replicates; controls 1 of 9).
S53W G99F R100N: nd (0 of 3 replicates; controls 1 of 9).
S63E G99L S107F: 65 µM (2 of 3 replicates; controls 3 of 9).
G99M S107L: 190 nM (3 of 3 replicates; controls 0 of 9).
I51F G99W: 13 µM (1 of 3 replicates; controls 2 of 9).
Y32N G99W A102S: 1.7 µM (1 of 3 replicates; controls 1 of 9).
G33K F59D G99S: 53 µM (2 of 3 replicates; controls 1 of 9).
T28L G99T A101P: nd (0 of 3 replicates; controls 0 of 9).
D54T S63Q G99C: 7.0 µM (1 of 3 replicates; controls 4 of 9).
I34N G99D: nd (0 of 3 replicates; controls 4 of 9).
S63E G99R G103N: 14 nM (3 of 3 replicates; controls 3 of 9).
I51H G99Q A101I: 23 µM (2 of 3 replicates; controls 3 of 9).
D62F G99I G103R: nd (0 of 3 replicates; controls 1 of 9).
S35K I51D G99D: nd (0 of 3 replicates; controls 3 of 9).
Y32K G99V G103C: nd (0 of 3 replicates; controls 0 of 9).
F59K D62L G99D: nd (0 of 3 replicates; controls 1 of 9).
K65F G99V: 21 nM (3 of 3 replicates; controls 0 of 9).
G26H R57P G99R: nd (0 of 3 replicates; controls 0 of 9).
G61T G99Q: 64 nM (3 of 3 replicates; controls 1 of 9).
R57G F59V G99Y: 84 µM (1 of 3 replicates; controls 1 of 9).
R57E G61S G99E: nd (0 of 3 replicates; controls 0 of 9).
D54V R57W G99Q: nd (0 of 3 replicates; controls 0 of 9).
K65M G99E A101D: nd (0 of 3 replicates; controls 0 of 9).
Y60P S63I G99F: nd (0 of 3 replicates; controls 0 of 9).
S31R V50R G99D: 5.5 µM (1 of 3 replicates; controls 1 of 9).

Extract of 6 entries:

| changes | Kd (apparent) | detected | control signals |
|---|---|---|---|
| S31R V50R G99D | 5.5 µM | 1/3 | 1/9 |
| Y60P S63I G99F | nd | 0/3 | 0/9 |
| V64R G99Y | nd | 0/3 | 2/9 |
| Y32N G99W A102S | 1.7 µM | 1/3 | 1/9 |
| Y32P T58P G99N | 8.2 µM | 1/3 | 4/9 |
| Y32K G99V G103C | nd | 0/3 | 0/9 |

Empty control strains, which show no peptide, gave a signal in 15% of pairings with library AAYL49; the median was 11 µM and 95% of these signals were weaker than 680 nM. No background was subtracted. For each scFv, signals with the empty controls are counted beside the result. For reference, the parent read 4.4 nM as the reference entry and 13 µM (one replicate of three) as a member of this library.